The entries are a selection whose mix differs from that of the whole data set. Active and inactive are the calls of the source. The call rests on the fitted dose curve; in most records, active means well fitted activation curve with a large enough effect; inconclusive means small, poorly fitted or top-dose-only effect, or another doubt; inactive means no such curve, though single readings can be large or run the other way.
biological target: Parathyroid hormone/parathyroid hormone-related peptide receptor (Homo sapiens) (UniProt Q03431); test: qHTS for PTHR1 Agonists: Primary Screen; conditions: HEK293 GP2 PTHR1 cells, GloSensor cAMP luminescence, 1 h; activation: at 115 µM (top of the series) unless noted; further: nearly all actives have a fitted effect of over 55% in size

Protein sequences, listed by entry. Tags and fused reporters are not part of them. Lines headed by an entry give the natural chain unless they say otherwise; changes in a name come on top.
UniProt Q03431: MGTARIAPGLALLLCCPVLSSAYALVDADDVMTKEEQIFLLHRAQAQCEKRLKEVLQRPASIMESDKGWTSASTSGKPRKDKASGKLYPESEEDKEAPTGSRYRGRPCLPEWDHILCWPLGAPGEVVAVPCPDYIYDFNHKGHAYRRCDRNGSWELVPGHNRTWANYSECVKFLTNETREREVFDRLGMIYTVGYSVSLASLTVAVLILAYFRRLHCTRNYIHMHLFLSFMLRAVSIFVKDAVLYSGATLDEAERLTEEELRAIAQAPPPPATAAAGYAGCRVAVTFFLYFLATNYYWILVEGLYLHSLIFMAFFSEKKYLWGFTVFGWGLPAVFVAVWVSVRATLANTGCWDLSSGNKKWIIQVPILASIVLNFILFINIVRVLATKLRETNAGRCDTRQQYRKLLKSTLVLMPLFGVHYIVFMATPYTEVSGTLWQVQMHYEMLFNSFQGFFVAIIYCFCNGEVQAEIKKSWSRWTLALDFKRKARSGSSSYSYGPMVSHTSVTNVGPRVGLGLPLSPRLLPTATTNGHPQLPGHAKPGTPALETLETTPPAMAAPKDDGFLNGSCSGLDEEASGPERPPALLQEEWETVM

| SMILES | activation | outcome |
| --- | --- | --- |
| O=P(Nc1nccs1)(Oc1ccccc1)Oc1ccccc1 | inactive: -10.8% | – |
| O=P(Nc1nccs1)(c1ccccc1)c1nc2ccccc2s1 (stereo not drawn) | inactive | – |
| O=C(O)COc1ccc([As](=O)(O)O)cc1[N+](=O)[O-] | inactive: -16.8% | – |
| Nc1ccccc1[As](=O)(O)c1ccccc1 | inactive | – |
| NC(=O)Nc1ccc([As](=O)(O)O)cc1 | inactive | – |
| CN(C)C(=O)c1cc([N+](=O)[O-])cc2c1-c1c(cc([N+](=O)[O-])cc1[N+](=O)[O-])C2=O | inactive: -30.5% | – |
| CN(C(=O)Cc1ccc(Cl)c(Cl)c1)[C@H]1CC[C@@]2(CCCO2)C[C@@H]1N1CCCC1 | inactive: -38% | – |
| N#CCCN(C(=O)COC(=O)C(O)(c1ccccc1)c1ccccc1)c1ccc(F)cc1 | inactive: -43.6% | – |
| CCOP1(=S)c2c(C)nn(CCC#N)c2N=C(c2ccc(F)cc2)N1C (stereo not drawn) | inactive: -8.31% [at 57.5 µM] | – |
| CN(C(=O)Cc1ccccc1)[C@@H]1CC[C@]2(CCCO2)C[C@H]1N1CCCC1 | inactive | – |
| Cc1nn(-c2ccccc2)c2c1P(=O)(N1CCOCC1)N(C)C(c1ccccc1)=N2 (stereo not drawn) | inactive | – |
| Cc1ccc(C(=O)OC2CN3CCC2CC3)cc1 (stereo not drawn) | inactive | – |
| CC1CCC(C(C)C)C(OP(=O)(Nc2ccccn2)c2ccccc2)C1 (stereo not drawn) | inactive: -95.1% | – |
| CCCC1OP(=O)(Nc2ccccc2)OCC1CC (stereo not drawn) | inactive: -11.1% | – |
| CN(C)C1(CNC(=O)c2ccc(S(C)(=O)=O)cc2)CCCCC1 | inactive | – |
| O=P1(Nc2ncccn2)COc2ccccc2OC1 | inactive | – |
| Cc1ccc(OCC(=O)OC2CN3CCC2CC3)cc1 (stereo not drawn) | inactive: -2.71% [at 57.5 µM] | – |

| SMILES | activation | outcome |
| --- | --- | --- |
| O=[As](O)(c1cccs1)c1cccs1 | inactive: -22.2% | – |
| NS(=O)(=O)c1cccc(NC(=O)COC(=O)C(O)(c2ccccc2)c2ccccc2)c1 | inactive | – |
| O=P1(Nc2ccc(Br)cn2)COc2ccccc2OC1 | – | inactive [at 57.5 µM] |
| Nc1cccc([As](=O)(O)c2ccccc2)c1 | inactive | – |
| CCOP(=O)(Nc1ccc(C)cn1)OCC | inactive | – |
| CN(CCCl)Cc1cc(Cl)c(NC2=NCCN2)c(Cl)c1 | inactive: 13% | – |
| CCC1=CC2Cc3nc4ccc(Cl)cc4c(N)c3C(C1)C2 (stereo not drawn) | inactive: -38.1% | – |
| O=P1(Nc2ccccn2)COc2ccccc2OC1 | inactive | – |
| CCOP(=O)(NC(=NC(C)c1ccccc1)NC(C)c1ccccc1)OCC (stereo not drawn) | inactive | – |
| Clc1n[nH]nc1-c1nn[nH][15n]1 | inactive | – |
| O=P1(N(CCCl)CCCl)NCCC(C(F)(F)F)O1 (stereo not drawn) | inactive | – |
| CC(C)(C)C(=O)NC(Sc1ncccn1)C(Cl)(Cl)Cl (stereo not drawn) | inactive: -21% | – |
| COc1ccccc1CNC(=O)COC(=O)C(O)(c1ccccc1)c1ccccc1 | inactive: -2.72% | – |
| CC1(CBr)Cn2c(nc3ccccc3c2=O)S1 (stereo not drawn) | – | inactive [at 57.5 µM] |
| CN(C(=O)Cc1ccc(Cl)c(Cl)c1)[C@@H]1CCCC[C@H]1N1CCCC1 | inactive: 27.8% | – |
| CC(C)/C=N\N=C(\N)N[N+](=O)[O-] | inactive | – |
